How the values were obtained:
[1] = molecular target: trastuzumab F(ab′)2 fragments (human); assay: SPR
[2] = molecular target: trastuzumab F(ab′)2 fragments (human); assay: SPR; remark: listed apart in the source

Kd [1] | koff [2] | Binder
4.3 µM | 0.00344 s⁻¹ | anti-Id scFv 40 (scFv, V domains shown) VH: not shown VL: SSELTQDPAVSVALGQTVRITCQGDSLRSYYASWYQQKPGQAPVLVIYGKNNRPSGIPDRFSGSSSGNTASLTITGAQAEDEADYYCNSSDPDQLLVVFGGGTKLTVL
 | 0.00122 s⁻¹ | anti-Id scFv 69 (scFv, V domains shown) VH: not shown VL: SSELTQDPAVSVALGQTVRITCQGDSLRSYYASWYQQKPGQAPVLVIYGKNNRPSGIPDRFSGSSSGNTASLTITGAQAEDEADYYCNSSEPTPPRVVFGGGTKLTVL
